Measurements published in patent publication US9157109B2, “Biosensors utilizing ink jet-printed biomolecule compatible sol gel inks and uses thereof” (McMaster University, priority 2009, dated 2015).

By UniProt entry, the sequences of proteins in these tests, tags left out. Where a name states a change or a piece, a line headed by the entry shows the natural chain unless it says otherwise.
UniProt P05804: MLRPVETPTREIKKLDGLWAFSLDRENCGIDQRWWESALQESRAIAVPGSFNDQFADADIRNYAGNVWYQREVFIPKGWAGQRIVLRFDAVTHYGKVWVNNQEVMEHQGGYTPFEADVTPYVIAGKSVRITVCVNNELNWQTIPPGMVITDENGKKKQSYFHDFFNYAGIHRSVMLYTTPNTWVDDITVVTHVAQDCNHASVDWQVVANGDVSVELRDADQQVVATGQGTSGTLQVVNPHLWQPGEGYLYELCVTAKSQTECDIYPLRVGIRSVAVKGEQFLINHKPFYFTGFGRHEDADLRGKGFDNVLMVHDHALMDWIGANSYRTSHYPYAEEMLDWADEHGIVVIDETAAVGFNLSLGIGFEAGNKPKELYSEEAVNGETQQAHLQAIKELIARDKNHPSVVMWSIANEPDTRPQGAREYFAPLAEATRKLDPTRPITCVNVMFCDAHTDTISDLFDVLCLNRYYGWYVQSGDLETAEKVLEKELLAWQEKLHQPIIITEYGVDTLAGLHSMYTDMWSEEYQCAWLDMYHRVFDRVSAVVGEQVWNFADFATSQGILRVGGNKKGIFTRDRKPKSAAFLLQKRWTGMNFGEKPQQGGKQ

What was measured:
[1] = target: T1, β-Glucuronidase (GUS) (Escherichia coli, UniProt P05804); type: biochemical, E. coli; parameters: purchased Sigma-Aldrich type VII-A (catalogue number not given)
Procedure: (§1) For this, all of these substrates were dissolved separately with sodium phosphate buffer (75 mM, pH 8). […] 20 μL of GUS (final concentration of 1 U/mL) was then added into each well and incubated for 30 min to allow color development. The absorbance at 610, 400, and 380 nm was then measured using a TECAN M1000 plate reader. A digital camera was also used to take a photograph of the plate. […] (0-10 mM), and FeCl3 (2 mM) were entrapped on paper as described previous section (FIG. 13b). The sensor was then immersed into GUS solution (1 U/mL) and removed as soon as the Gus solution has reached the sensing region through FeCl3 zone followed by a certain incubation time (5, 30, and 60 min) at room temperature.
Experiments were conducted firstly in 96-well plate, in which GUS (final concentration of 1 U/mL) was entrapped in silica gel. […] (4 mM) and oxidizing agents (1 mM each) were then added to each well (designated for the individual oxidizing agent), and incubated for 30 min. The concentration gradient (0-30 mM) of FeCl3 was also observed in 96-well plate. The absorbance at 610 was measured using a TECAN M1000 plate reader for each experiment. A digital camera was also used to take a photograph of the plate. […] (3 mM) were entrapped on paper using biocompatible silica material in order to make the sensor strips, as described in the previous section. […]

[2] = target: T1, β-Glucuronidase (GUS)
Procedure: as §1

5-bromo-4-chloro-3-indolyl β-D-glucuronide sodium salt [X-Gluc]
visual color formation via GUS catalyzed hydrolysis [1]: distinct deep blue color | Km [2]: ~700 µM
